Assay: Thermodynamic solubility in pH 7.4 DPBS, UV quantification
Type: physicochemical
Settings: 24 hours, room temperature (25° C.)
Method: A working 1 mM stock solution of the test compound in DMSO was prepared from a 10 mM DMSO stock solution. A spectrum scan from 220 nm to 1000 nm of this working solution was performed in a 96-well UV plate to identify the wavelength maxima. […] The selected stock solution was serially diluted in DMSO to confirm linearity and generate a seven to eight-point calibration curve. Of note, only linear points were considered in the curve.
The resulting solution was placed on a RotoSpin™ shaker at 50 rpm for 24 hours at room temperature (25° C.). The solution was then filtered using a 0.45 μm PVDF filter to remove any insoluble fraction of the compound. A 150 μL aliquot of the filtrate was taken for quantification using UV spectroscopy (POLARstar Omega BMG Plate Reader). The optical densities of the standard solutions and the test sample were acquired at the same wavelength maxima. The test sample concentration was calculated from its optical density using the linearity/calibration curve.

Sodium 2-((19-((dimethyl(3-(tris(3-sulfonatopropyl)ammonio)propyl)silyl)oxy)-19H-6,11-(azeno)-17,21-(azeno[3]episoindoloazeno)benzo[7,8][1,3,5,10]tetraaza[2]silacycloundecino[4,3-a:11,1-a′]diisoindol-19-yl)oxy)-2-methyl-6,6-bis(3-sulfonatopropyl)-9,12-dioxa-6-aza-2-silapentadecan-6-ium-15-oate [Example 21]
Solubility* (thermodynamic solubility): C (C: >100 μg/mL)

From patent US20240285765A1, “PHTHALOCYANINE DYE COMPOUNDS, CONJUGATES AND METHODS OF USE THEREOF” (Rakuten Medical, Inc., priority 2021, published 2024)
